# Test results published in patent publication US20080160006A1, “Nutrient Medium for Maintaining Neural Cells in Injured Nervous System” (priority 2001, published 2008).
# Test system: human cortical brain cells (neurons vs glia)
# Experiment: Adult human cortical brain cells cultured in B27/Neurobasal A, immunostained for neurofilament and GFAP
# Format: cell-based
# From the text: GENERAL METHODS. Brain tissue was ethically obtained by informed consent from patients before surgery under protocols approved by the Springfield Committee for Research on Human Subjects and the UC Irvine IRB. […] Rather than using aspiration to remove all tissue, slices of tissue 1-3 mm thick were obtained from cortical access ports or tissue that was marginal to the lesion. Use of electrocautery was kept to a minimum to reduce oxyradicals and other neuron damage. […] Hibernate A contains D-glucose, pyruvate, balanced salts, amino acids, and vitamins. B27 contains 5 antioxidants and 15 other components. […] After transport on ice to a laminar flow sterile hood in the culture laboratory, meninges and white matter were removed from the tissue with a scalpel and forceps in a 35 mm dish in 2 ml transport medium. […] The cell suspension was enriched for neurons by centrifugation on a density gradient of Optiprep (Invitrogen). […] The diluted Optiprep was further diluted with transport medium (v/v) to make a gradient containing 4 steps of 1 ml in a 15 ml centrifuge tube: bottom (0.35:0.65), 0.25:0.75, 0.2:0.8, top (0.15:0.85). Up to 6 ml of cell suspension was layered over the Optiprep step gradient. […] Cells were plated at a density of 320/mm^2 onto glass coverslips coated with polylysine as previously described. Cells were cultured in Neurobasal™ A medium (Invitrogen) with 2 percent B27, 5 ng/ml FGF2 (basic human recombinant fibroblast growth factor, Invitrogen) and 0.5 mM glutamine in a humidified atmosphere of 9 percent O2, and 5 percent CO2 (Forma, Marietta, Ohio). […] EGF (20 ng/ml; murine, Invitrogen) and NT3 (100 ng/ml; recombinant, Regeneron) were added as indicated from 500× stock solutions in 1 percent BSA/PBS. Half of the medium was replaced with fresh medium every 3-4 days.
# For immunocytology, cultures were rinsed twice in warm PBS and fixed for 10 minutes in 4 percent paraformaldehyde in PBS. After rinsing twice with PBS, cells for GFAP staining were postfixed for 20 minutes in acetic acid/ethanol (1:9, v/v) before rinsing again with PBS. Non-specific sites were blocked, and cells were permeabilized for 5 minutes in 5 percent normal goat serum, and 0.5 percent Triton X-100. Cells were incubated with primary antibodies for 1 hour at 22° C. in 5 percent goat serum, and 0.05 percent Triton as follows: mouse anti-neurofilament 200 (1:40, Sigma) with rabbit anti-cow GFAP (1:2000, Dako), or mouse anti-MAP2 (1:250, Boeringer-Mannheim) with rabbit anti-tau (1:2000). After rinsing four times with PBS, cells were incubated 1 hour at 22° C. with a rhodamine-conjugate of goat anti-rabbit IgG (heavy+light chain, 1:500, Tago) together with a cy2-conjugate of goat anti-mouse IgG (heavy+light chain, 1:100, Jackson). After rinsing four times in PBS, coverslips were mounted with Aquamount and imaged through a Nikon 60×/1.4 objective using a Spot cooled CCD camera (Diagnostic Instruments).
# Human cortical brain tissue was obtained for culture from eleven consecutive surgical cases, including seven tumor cases, three cases of epilepsy, and one case of suprabulbar palsy. Patients ranged in age from 41 to 70 years.
# Neuronal Characteristics of Isolated Cells. Cytoskeletal components were used as specific markers to distinguish neurons from glia. Microtubule associated proteins, MAP2 and tau, are generally associated with somatodendritic and axonal regions of neurons, respectively.
# [1] = surgical sample 1, glioma r. temporal, 46 M, addition to B27/Neurobasal A, after 6 days
smiles,measurement,setting,value
"C[C@]12CC[C@H](OS(=O)(=O)O)CC1=CC[C@@H]1[C@@H]2CC[C@]2(C)C(=O)CC[C@@H]12 [DHEAS, dehydroepiandrosterone 3-sulphate, reference compound]","promoting survival of neurofilament positive, neuron-like cells, compared to FGF2","DHEAS at 10 μg/ml, three cases",as effective as FGF2
same,% GFAP (mean ± S.D.),[1],31 ± 9%
same,% Neurofilament (mean ± S.D.),[1],70 ± 12%
same,% Neurofilament (mean ± S.D.),"surgical sample 3, glioma l. frontal, 41 M, addition to B27/Neurobasal A, after 6 days",61 ± 10%
same,% Neurofilament (mean ± S.D.),"surgical sample 5, meningioma r. temporal, 70 µM, addition to B27/Neurobasal A, after 6 days",25 ± 10%
